These are literature values, as cited in US7579013B2, “Formulations for coated microprojections containing non-volatile counterions” (Alza Corporation, priority 2003, dated 2009).

For the data set the following is noted: cited from earlier work.

Only a part of the results on these compounds is given; other tests are left out.

The pKa is the negative logarithm of the acid dissociation constant. For the compound `CCC(=O)N(c1ccccc1)C1CCN(CCc2ccccc2)CC1`, the pKa is 8.5.
